The source of these data is US7135615B2, “Chromosome doubling method” (The Curators of the University of Missouri, priority 2001, dated 2006).

This data set has as its system maize haploid seedlings of origin Oh43. The data set is described as follows: doubled haploid production trial, Oh43 haploids (Example 4). The conditions noted are these: second study, out of 50 treated Oh43 haploid seedlings. As for the experimental part:
Ten to nineteen plants were treated for each plot. Self pollinations were conducted on these treated haploids if there were fertile sectors on the tassel. Pollen grains were collected carefully on a sheet of paper and transferred to the silks repeatedly. Silks and husks were cut back prior to pollination in order to permit maximum seed set. The numbers of fertile tassel and ear sectors, as well as the numbers of anthers and selfed kernels were recorded. Statistical analyses were as described above.

With `[N-]=[N+]=O` [nitrous oxide gas, nitrous oxide], the “treated seedlings died from fungus attack” value is given as “fourteen”.
